The values that follow come from PubChem BioAssay AID1861 (The Scripps Research Institute Molecular Screening Center, 2009).

Sequences of proteins named here, by UniProt entry; tags and fusion partners are left off.
UniProt P48145, whole entry: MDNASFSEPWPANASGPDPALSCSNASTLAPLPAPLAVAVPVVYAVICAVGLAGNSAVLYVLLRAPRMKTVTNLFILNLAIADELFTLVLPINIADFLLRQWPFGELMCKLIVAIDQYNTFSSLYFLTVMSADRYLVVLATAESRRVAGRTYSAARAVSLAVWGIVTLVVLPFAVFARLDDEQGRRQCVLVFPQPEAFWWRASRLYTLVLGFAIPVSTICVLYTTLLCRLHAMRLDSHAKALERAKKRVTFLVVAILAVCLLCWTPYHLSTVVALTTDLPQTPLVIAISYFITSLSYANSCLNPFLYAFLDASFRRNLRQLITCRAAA

The entries are a selection whose mix differs from that of the whole data set. The source made the active and inactive calls. Cut-off read from the data, not from the text of the source: active = inhibition above about 16% (passing the limit was not always enough); inactive = the rest.

This experiment has as its target Neuropeptides B/W receptor type 1 (Homo sapiens) (UniProt P48145). In words: GPR7 receptor antagonists, primary screen, cell-based, fluorescence, single concentration (AID 1861).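 Note: cells stimulated with the agonist NPW; 0% = agonist with vehicle and 100% = vehicle without agonist.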 The conditions noted are these: GPR7-expressing cells, fluorescence antagonist assay; at 4.4 µM; stronger effect = higher value.
For the compound `Cc1c(NP(C)(=O)Oc2ccc(C(C)C)cc2)c(=O)n(-c2ccccc2)n1C` (configuration not stated), the inhibition is inactive: -12%.
`CCc1ccc(OP(C)(=O)O)cc1`: the inhibition is inactive: -4.04%.
`COc1ccccc1OP(C)(=O)Nc1ccc(C)cc1C` (configuration not stated): the inhibition is inactive: -7.84%.
As for `CP(=O)(Nc1ccccn1)Oc1ccccc1` (configuration not stated), the figure is inactive: -6.65%; as for `Cc1cc(C)cc(OP(C)(=O)Nc2cccc(C(F)(F)F)c2)c1` (configuration not stated), inactive: -5.27%.
For `COc1ccc(OP(C)(=O)Nc2ccccc2Br)cc1` (configuration not stated), the inhibition was inactive: -2.46%.
`COc1ccccc1OP(C)(=O)Nc1ccc(C)c(C)c1` (configuration not stated): the inhibition is inactive: -11.6%.
Under `Cc1nc2ccc3ccccc3c2o1.O=[N+]([O-])c1cc([N+](=O)[O-])c(O)c([N+](=O)[O-])c1` stands inactive: -13.1%.
As for `CP(=O)(OCCOc1ccccc1)OCCOc1ccccc1`, the figure is inactive: -1.52%; as for `CP(=O)(Nc1ccc(Cl)cc1Cl)Oc1ccccc1` (configuration not stated), inactive: -11.8%; as for `CP(=O)(OC12CC3CC(CC(C3)C1)C2)OC12CC3CC(CC(C3)C1)C2`, inactive: 3.44%.
Under `CCOC(=O)c1ccc(NP(C)(=O)Oc2ccc(Cl)cc2)cc1` (configuration not stated) stands inactive: -2.46%; under `COc1ccc(OP(C)(=O)Nc2ccc(Br)cc2)cc1` (configuration not stated), inactive: 0.59%.
As to `CCN(CC)CC(O)COC(=O)C(O)(c1ccccc1)C1CCCCC1` (configuration not stated), the inhibition was inactive: -2.33%.
For the compound `CCc1ccc(OP(C)(=O)Nc2cccnc2)cc1` (configuration not stated), the inhibition is inactive: -6.31%.
Under `CP(=O)(Oc1ccccc1)N1CCOC1=O` (configuration not stated) stands inactive: 7.57%; under `O=C(OCCCN1CCCC1)C(O)(c1ccccc1)C1CCCCC1` (configuration not stated), inactive: 3.51%; under `COc1ccccc1OP(C)(=O)Nc1c(C)n(C)n(-c2ccccc2)c1=O` (configuration not stated), inactive: -12.1%.
Under `CP(=O)(Nc1ccc(Cl)cc1)Oc1ccc(F)cc1` (configuration not stated) stands inactive: -1.77%.
On to `CC(C)(C)c1ccc(OP(C)(=O)O)cc1`, for which the inhibition is inactive: -3.04%.
Under `COc1ccccc1OP(C)(=O)Nc1ccccc1Br` (configuration not stated) stands inactive: 3.62%; under `CN(C)C(=O)c1c([N+](=O)[O-])cc([N+](=O)[O-])cc1[N+](=O)[O-]`, inactive: -5.59%.
